{"source": "PubChem BioAssay AID651995", "about": "(Sanford-Burnham Center for Chemical Genomics, 2013)", "note": "The entries are a selection whose mix differs from that of the whole data set. Calls of active or inactive are those of the source.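 How the source made its calls: active means mean inhibition above about 25% (limit read from the data); inactive means the rest.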", "data": [{"experiment": "inhibitors of Wnt3a-driven luciferase in Wnt-LIGHT cells – cell-based, luminescence, single concentration, counter-screen for Gli-SUFU antagonist project, confirmation (AID 651995)", "settings": "Wnt3a-driven luciferase reporter, at 6.25 µM, hits give high values", "values": [{"smiles": "CC1=C2N=C(C=C3N=C(C(C)=C4[N-][C@@](C)([C@@H]5N=C1[C@](C)(CCC(=O)NC[C@@H](C)OP(=O)([O-])O[C@H]1[C@@H](O)[C@@H](n6cnc7cc(C)c(C)cc76)O[C@@H]1CO)[C@H]5CC(N)=O)[C@@](C)(CC(N)=O)[C@@H]4CCC(N)=O)[C@@](C)(CC(N)=O)[C@@H]3CCC(N)=O)C(C)(C)[C@@H]2CCC(N)=O.[C-]#N.[Co+3]", "inhibition": "active: 45.2%"}]}]}
